Two compounds from ChEMBL document CHEMBL1141618, “Evaluation of a series of bicyclic CXCR2 antagonists” (Bioorg Med Chem Lett, 2008) can be followed below.

In the data set the test system is human plasma (Homo sapiens). The experiment in a line: Protein binding as % unbound in human plasma.

A word on the fraction unbound: it is the share of the substance not bound to proteins or other matrix. A lower fraction unbound goes with little free substance. Regarding `C[C@H](CO)Nc1nc(SCc2cccc(F)c2F)nc2[nH]c(=O)c(C#N)cc12`, the fraction unbound was 0.017.
Regarding `C[C@H](CO)Nc1nc(SCc2ccccc2)nc2[nH]c(=O)sc12`, the fraction unbound was 0.0027.
